{"source": "paper PMC8523698", "about": "“Preclinical characterization of an intravenous coronavirus 3CL protease inhibitor for the potential treatment of COVID19” (Nature Communications, 2021)", "biological_target": "T1, OATP1B3 (Homo sapiens, UniProt Q9NPD5)", "T1 sequence (Q9NPD5 1-702)": "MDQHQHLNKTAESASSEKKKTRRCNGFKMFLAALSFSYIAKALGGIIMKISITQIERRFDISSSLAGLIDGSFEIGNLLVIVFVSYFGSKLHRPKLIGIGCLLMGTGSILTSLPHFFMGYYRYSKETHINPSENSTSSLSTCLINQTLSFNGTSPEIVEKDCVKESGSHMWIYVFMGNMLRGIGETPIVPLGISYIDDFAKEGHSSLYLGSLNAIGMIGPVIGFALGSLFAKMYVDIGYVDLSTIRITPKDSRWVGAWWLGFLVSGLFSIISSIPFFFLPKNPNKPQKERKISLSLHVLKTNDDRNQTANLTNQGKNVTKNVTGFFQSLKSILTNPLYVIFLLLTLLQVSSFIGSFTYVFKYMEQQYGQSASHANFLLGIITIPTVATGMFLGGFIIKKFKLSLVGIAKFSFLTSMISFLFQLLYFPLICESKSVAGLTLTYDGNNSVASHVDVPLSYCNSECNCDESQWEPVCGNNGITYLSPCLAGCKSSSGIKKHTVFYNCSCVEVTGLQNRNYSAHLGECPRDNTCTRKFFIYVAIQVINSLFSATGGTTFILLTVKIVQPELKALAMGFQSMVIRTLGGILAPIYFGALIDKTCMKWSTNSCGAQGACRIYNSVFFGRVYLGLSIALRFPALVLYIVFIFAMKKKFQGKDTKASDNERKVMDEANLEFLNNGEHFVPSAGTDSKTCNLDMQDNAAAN", "experiment": "Transporter inhibition using transfected HEK293 cells", "settings": "uptake of Rosuvastatin by OATP1B3; inhibitor 1.1719 uM", "note": "Several values for one entry are separate records, joined by “and”; a condition that tells them apart may be missing. Identical values can stand only once.", "data": [{"smiles": "COc1cccc2[nH]c(C(=O)N[C@@H](CC(C)C)C(=O)N[C@@H](C[C@@H]3CCNC3=O)C(=O)COP(=O)(O)O)cc12", "note": "[PF-07304814]", "values": [{"measurement": "% Uptake Activity", "value": "96.4% and 90.8%"}]}]}
